The source of these data is ChEMBL document CHEMBL5620417, “N-aryltetrahydroisoquinoline derivatives as HA-CD44 interaction inhibitors: Design, synthesis, computational studies, and antitumor effect” (Eur J Med Chem, 2023).

Sequences of proteins named here, by UniProt entry; tags and fusion partners are left off. A change or cut given only in a name is not applied to a line headed by its entry.
UniProt P16070: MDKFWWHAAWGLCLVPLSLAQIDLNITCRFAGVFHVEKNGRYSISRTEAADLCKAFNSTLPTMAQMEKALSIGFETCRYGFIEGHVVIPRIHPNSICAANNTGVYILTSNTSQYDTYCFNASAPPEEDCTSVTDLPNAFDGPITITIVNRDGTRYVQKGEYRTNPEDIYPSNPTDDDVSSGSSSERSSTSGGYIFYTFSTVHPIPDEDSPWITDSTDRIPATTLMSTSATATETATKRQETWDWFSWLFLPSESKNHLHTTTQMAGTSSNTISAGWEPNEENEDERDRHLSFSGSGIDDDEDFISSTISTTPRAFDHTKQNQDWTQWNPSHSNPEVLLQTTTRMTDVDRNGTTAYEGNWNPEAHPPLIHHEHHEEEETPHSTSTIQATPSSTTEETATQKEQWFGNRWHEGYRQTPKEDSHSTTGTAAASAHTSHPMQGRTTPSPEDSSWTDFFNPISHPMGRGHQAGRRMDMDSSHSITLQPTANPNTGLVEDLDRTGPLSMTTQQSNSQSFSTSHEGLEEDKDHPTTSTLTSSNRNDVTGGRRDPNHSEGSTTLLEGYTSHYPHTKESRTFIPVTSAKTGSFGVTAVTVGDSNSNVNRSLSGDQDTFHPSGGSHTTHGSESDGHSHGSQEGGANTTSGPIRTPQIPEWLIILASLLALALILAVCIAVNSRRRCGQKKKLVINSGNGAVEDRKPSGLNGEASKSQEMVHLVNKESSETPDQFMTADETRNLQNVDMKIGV

The test has as its target CD44 antigen (Homo sapiens) (UniProt P16070). Nature of the test: Displacement of HA-FITC from CD44 in human MDA-MB-231 cells assessed as fold decrease in fluorescent intensity at 120 ug/ml incubated for 45 mins by competitive binding assay based flow cytometric analysis. In kind it is cell-based. The conditions noted are these: dose 120.0 µg/ml. In general terms: A flow cytometer gives signals particle by particle.
Consider `CC(=O)CCN1CCc2ccccc2C1`, for which the fold change (FC) came out at 1.3.
For `COc1cc(CN2CCc3c(N)cccc3C2)cc(OC)c1OC` the value was 1.8; for `COc1cc(CN2CCc3c(Br)cccc3C2)cc(OC)c1OC`, 1.5.
